{"source": "patent US20240058343A1", "about": "“TREATMENT OF URTICARIA USING JAK INHIBITORS” (Incyte Corporation, priority 2022, published 2024)", "molecular_target": "human JAK1 (a.a. 837-1142) (Homo sapiens, UniProt P23458)", "experiment": "In vitro JAK kinase assay (HTRF), JAK1", "format": "biochemical", "settings": "1 mM ATP"}
{"smiles": "CN(C)Cc1cc(F)cc(OC2CCN(CC(CC#N)n3cc(-c4ncnc5[nH]ccc45)cn3)CC2)c1", "note": "(single isomer, unassigned) [compound 14, 4-(4-{3-[(dimethylamino)methyl]-5-fluorophenoxy}piperidin-1-yl)-3-[4-(7H-pyrrolo[2,3-d]pyrimidin-4-yl)-1H-pyrazol-1-yl]butanenitrile]", "values": [{"measurement": "IC50", "result": "< 10", "unit": "nM"}]}
